Measured values as given in patent US7507717B2 (Xenome Ltd., priority 2002, dated 2009).

Sequences of proteins named here, by UniProt entry; tags and fusion partners are left off.
UniProt P23975, whole entry: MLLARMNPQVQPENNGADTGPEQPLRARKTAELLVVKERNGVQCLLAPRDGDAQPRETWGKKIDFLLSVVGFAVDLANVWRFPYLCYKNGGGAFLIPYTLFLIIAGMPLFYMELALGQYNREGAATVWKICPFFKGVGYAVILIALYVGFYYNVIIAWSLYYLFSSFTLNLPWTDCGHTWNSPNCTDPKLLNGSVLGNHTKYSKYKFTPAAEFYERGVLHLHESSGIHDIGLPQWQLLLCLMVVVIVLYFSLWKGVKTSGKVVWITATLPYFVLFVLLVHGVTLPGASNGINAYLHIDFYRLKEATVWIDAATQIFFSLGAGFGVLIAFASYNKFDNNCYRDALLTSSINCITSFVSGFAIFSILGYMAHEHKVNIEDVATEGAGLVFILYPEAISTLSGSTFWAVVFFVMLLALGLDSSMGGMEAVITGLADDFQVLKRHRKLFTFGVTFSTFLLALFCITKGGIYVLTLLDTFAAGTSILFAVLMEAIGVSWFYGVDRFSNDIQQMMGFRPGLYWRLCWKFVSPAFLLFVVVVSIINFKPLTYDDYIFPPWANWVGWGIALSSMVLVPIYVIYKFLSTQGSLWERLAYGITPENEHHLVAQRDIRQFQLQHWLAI

These compounds were tested against T1, human noradrenaline transporter (hNET) (Homo sapiens, UniProt P23975) (assay: biochemical). Settings: Av IC50 Displacement of 3H-nisoxetine from hNET.
T1 construct: expressed in transfected cells; host or cells: COS-7 cells (ATCC), transient transfection with metafectene
Assay type: binding
Compound CC(C)C[C@@H]1NC(=O)[C@H](CCCCN)NC(=O)[C@H](Cc2ccc(O)cc2)NC(=O)CNC(=O)[C@@H]2CSSC[C@H](NC1=O)C(=O)N[C@@H](Cc1c[nH]cn1)C(=O)N1C[C@H](O)C[C@H]1C(=O)N[C@H](C(N)=O)CSSC[C@H](NC(=O)[C@@H](NC(=O)CNC(=O)[C@H](CC(N)=O)NC(=O)[C@H](C)NC(=O)[C@@H](N)Cc1c[nH]c3ccccc13)C(C)C)C(=O)N2 [compound 106] has an IC50 of 813 nM.
In the case of CC(C)C[C@@H]1NC(=O)[C@H](CCCCN)NC(=O)[C@H](Cc2ccc(O)cc2)NC(=O)CNC(=O)[C@@H]2CSSC[C@H](NC1=O)C(=O)N[C@@H](Cc1c[nH]cn1)C(=O)N1CCC[C@H]1C(=O)N[C@H](C(N)=O)CSSC[C@H](NC(=O)[C@@H](NC(=O)CNC(=O)[C@@H](N)CCCN)C(C)C)C(=O)N2 [compound 108], the IC50 is reported as 871 nM.
In the case of COc1ccc(C[C@@H]2NC(=O)CNC(=O)[C@@H]3CSSC[C@H](NC(=O)[C@H](CC(C)C)NC(=O)[C@H](CCCCN)NC2=O)C(=O)N[C@@H](Cc2c[nH]cn2)C(=O)N2CCC[C@H]2C(=O)N[C@H](C(N)=O)CSSC[C@H](NC(=O)[C@@H](NC(=O)CNC(=O)[C@@H](N)CC(N)=O)C(C)C)C(=O)N3)cc1 [compound 113], the IC50 is reported as 1100 nM.
CC(C)C[C@@H]1NC(=O)[C@H](CCCCN)NC(=O)[C@H](Cc2ccc(O)cc2)NC(=O)CNC(=O)[C@@H]2CSSC[C@H](NC1=O)C(=O)N[C@@H](Cc1c[nH]cn1)C(=O)N1CCCC[C@H]1C(=O)N[C@H](C(N)=O)CSSC[C@H](NC(=O)[C@@H](NC(=O)CNC(=O)[C@@H](N)CC(N)=O)C(C)C)C(=O)N2 [compound 129] gave an IC50 of 1620 nM.
Compound CC(C)C[C@@H]1NC(=O)[C@H](CCCCN)NC(=O)[C@H](Cc2ccc(O)cc2)NC(=O)CNC(=O)[C@@H]2CSSC[C@H](NC1=O)C(=O)N[C@@H](Cc1c[nH]cn1)C(=O)N1C[C@H](O)C[C@H]1C(=O)N[C@H](C(N)=O)CSSC[C@H](NC(=O)[C@@H](NC(=O)CNC(=O)[C@H](C)N)C(C)C)C(=O)N2 [compound 130] has an IC50 of 1660 nM.
With CC(C)C[C@@H]1NC(=O)[C@H](CCCCN)NC(=O)[C@H](Cc2ccc(O)cc2)NC(=O)CNC(=O)[C@@H]2CSSC[C@H](NC1=O)C(=O)N[C@@H](Cc1c[nH]cn1)C(=O)N1CCC[C@H]1C(=O)N[C@H](C(N)=O)CSSC[C@H](NC(=O)[C@@H](NC(=O)CNC(=O)C[C@@H](N)CCCCN)C(C)C)C(=O)N2 [compound 93] the IC50 was 407 nM.
Compound COc1ccc(C[C@@H]2NC(=O)[C@H](Cc3c[nH]cn3)NC(=O)[C@@H]3CSSC[C@H](NC(=O)[C@@H](NC(=O)[C@@H](NC(=O)CNC(=O)[C@@H](N)CC(N)=O)C(C)C)CSSC[C@@H](C(N)=O)NC2=O)C(=O)NCC(=O)N[C@@H](Cc2ccc(O)cc2)C(=O)N[C@@H](CCCCN)C(=O)N[C@@H](CC(C)C)C(=O)N3)cc1 [compound 141] has an IC50 of 2450 nM.
Work on COc1ccc(C[C@@H]2NC(=O)CNC(=O)[C@@H]3CSSC[C@H](NC(=O)[C@H](CC(C)C)NC(=O)[C@H](CCCCN)NC2=O)C(=O)N[C@@H](Cc2c[nH]cn2)C(=O)N[C@@H](C)C(=O)N[C@H](C(N)=O)CSSC[C@H](NC(=O)[C@@H](NC(=O)CNC(=O)[C@H](CCCNC(=N)N)NC(=O)[C@@H](N)Cc2c[nH]c4ccccc24)C(C)C)C(=O)N3)cc1 [compound 40] yielded an IC50 of 105 nM.
Work on CC(C)C[C@@H]1NC(=O)[C@H](CCCCN)NC(=O)[C@H](Cc2ccc(O)cc2)NC(=O)CNC(=O)[C@@H]2CSSC[C@H](NC1=O)C(=O)N[C@@H](Cc1c[nH]cn1)C(=O)N1C[C@H](O)C[C@H]1C(=O)N[C@H](C(N)=O)CSSC[C@H](NC(=O)[C@@H](NC(=O)CNC(=O)C[C@H](CCCCN)NC(=O)[C@@H](N)Cc1c[nH]c3ccccc13)C(C)C)C(=O)N2 [compound 95] yielded an IC50 of 437 nM.
CC(C)C[C@@H]1NC(=O)[C@H](CCCCN)NC(=O)[C@H](Cc2ccc(O)cc2)NC(=O)CNC(=O)[C@@H]2CSSC[C@H](NC1=O)C(=O)N[C@@H](Cc1c[nH]cn1)C(=O)N1CCC[C@H]1C(=O)N[C@H](C(N)=O)CSSC[C@H](NC(=O)[C@@H](NC(=O)CNC(=O)[C@H](CC(N)=O)NC(=O)c1ccccc1)C(C)C)C(=O)N2 [compound 120] showed an IC50 of 1230 nM.
For COc1ccc(C[C@@H]2NC(=O)CNC(=O)[C@@H]3CSSC[C@H](NC(=O)[C@H](CC(C)C)NC(=O)[C@H](CCCCN)NC2=O)C(=O)N[C@@H](Cc2c[nH]cn2)C(=O)N2C[C@H](O)C[C@H]2C(=O)N[C@H](C(N)=O)CSSC[C@H](NC(=O)[C@@H](NC(=O)CNC(=O)[C@H](CCCNC(=N)N)NC(=O)[C@@H](N)Cc2c[nH]c4ccccc24)C(C)C)C(=O)N3)cc1 [compound 25], the IC50 was 47.9 nM.
CC(C)C[C@@H]1NC(=O)[C@H](CCCCN)NC(=O)[C@H](Cc2ccc(O)cc2)NC(=O)CNC(=O)[C@@H]2CSSC[C@H](NC1=O)C(=O)N[C@@H](Cc1c[nH]cn1)C(=O)N1C[C@H](O)C[C@H]1C(=O)N[C@H](C(N)=O)CSSC[C@H](NC(=O)[C@@H](NC(=O)CNC(=O)[C@@H](N)CC(=O)O)C(C)C)C(=O)N2 [compound 147] was tested, and the IC50 was 3160 nM.
For CC(C)C[C@@H]1NC(=O)[C@H](CCCCN)NC(=O)[C@H](Cc2ccc(O)cc2)NC(=O)CNC(=O)[C@@H]2CSSC[C@H](NC1=O)C(=O)N[C@@H](Cc1c[nH]cn1)C(=O)N1C[C@H](O)C[C@H]1C(=O)N[C@H](C(N)=O)CSSC[C@H](NC(=O)[C@@H](NC(=O)CNC(=O)[C@H](CC(N)=O)NC(=O)[C@H](C)NC(=O)[C@H](C)NC(=O)[C@@H](N)Cc1c[nH]c3ccccc13)C(C)C)C(=O)N2 [compound 100], the IC50 was 646 nM.
Compound CC(=O)N[C@@H](Cc1c[nH]c2ccccc12)C(=O)N[C@@H](CCCCN)CC(=O)NCC(=O)N[C@H](C(=O)N[C@H]1CSSC[C@@H](C(N)=O)NC(=O)[C@@H]2C[C@@H](O)CN2C(=O)[C@H](Cc2c[nH]cn2)NC(=O)[C@@H]2CSSC[C@H](NC1=O)C(=O)NCC(=O)N[C@@H](Cc1ccc(O)cc1)C(=O)N[C@@H](CCCCN)C(=O)N[C@@H](CC(C)C)C(=O)N2)C(C)C [compound 109] has an IC50 of 933 nM.
For CC(C)C[C@@H]1NC(=O)[C@H](CCCCN)NC(=O)[C@H](Cc2ccc(O)cc2)NC(=O)CNC(=O)[C@@H]2CSSC[C@H](NC1=O)C(=O)N[C@@H](Cc1c[nH]cn1)C(=O)N1C[C@H](O)C[C@H]1C(=O)N[C@H](C(N)=O)CSSC[C@H](NC(=O)[C@@H](NC(=O)CNC(=O)C[C@@H](N)CCCCN)C(C)C)C(=O)N2 [compound 101], the IC50 was 692 nM.
In the case of CC(C)C[C@@H]1NC(=O)[C@H](CCCCN)NC(=O)[C@H](Cc2ccc(O)cc2)NC(=O)[C@@H](Cc2ccccc2)NC(=O)[C@@H]2CSSC[C@H](NC1=O)C(=O)N[C@@H](Cc1c[nH]cn1)C(=O)N1CCC[C@H]1C(=O)N[C@H](C(N)=O)CSSC[C@H](NC(=O)[C@@H](NC(=O)CNC(=O)[C@@H](N)CC(N)=O)C(C)C)C(=O)N2 [compound 192], the IC50 is reported as 112000 nM.
For CC(C)C[C@@H]1NC(=O)[C@H](CCCCN)NC(=O)[C@@H]2Cc3ccccc3CN2C(=O)CNC(=O)[C@@H]2CSSC[C@H](NC1=O)C(=O)N[C@@H](Cc1c[nH]cn1)C(=O)N1CCC[C@H]1C(=O)N[C@H](C(N)=O)CSSC[C@H](NC(=O)[C@@H](NC(=O)CNC(=O)[C@@H](N)CC(N)=O)C(C)C)C(=O)N2 [compound 191], the IC50 was 110000 nM.
COc1ccc(C[C@@H]2NC(=O)CNC(=O)[C@@H]3CSSC[C@H](NC(=O)[C@H](CC(C)C)NC(=O)[C@H](CCCCN)NC2=O)C(=O)N[C@@H](CCCNC(=N)N)C(=O)N[C@@H](C)C(=O)N[C@H](C(N)=O)CSSC[C@H](NC(=O)[C@@H](NC(=O)CNC(=O)[C@H](CC(N)=O)NC(=O)[C@@H](N)Cc2ccc(O)cc2)C(C)C)C(=O)N3)cc1 [compound 62] gave an IC50 of 182 nM.
CC(C)C[C@H](NC(=O)CNC(=O)[C@H](CCCNC(=N)N)NC(=O)[C@@H](N)Cc1c[nH]c2ccccc12)C(=O)N[C@H]1CSSC[C@@H](C(N)=O)NC(=O)[C@@H]2C[C@@H](O)CN2C(=O)[C@H](Cc2c[nH]cn2)NC(=O)[C@@H]2CSSC[C@H](NC1=O)C(=O)NCC(=O)N[C@@H](Cc1ccc(O)cc1)C(=O)N[C@@H](CCCCN)C(=O)N[C@@H](CC(C)C)C(=O)N2 [compound 26] gave an IC50 of 50.1 nM.
CCCC[C@H](NC(=O)CNC(=O)[C@H](CC(N)=O)NC(=O)[C@@H](N)Cc1ccc(O)cc1)C(=O)N[C@H]1CSSC[C@@H](C(N)=O)NC(=O)[C@@H]2CCCN2C(=O)[C@H](Cc2c[nH]cn2)NC(=O)[C@@H]2CSSC[C@H](NC1=O)C(=O)NCC(=O)N[C@@H](Cc1ccc(O)cc1)C(=O)N[C@@H](CCCCN)C(=O)N[C@@H](CC(C)C)C(=O)N2 [compound 50] was tested, and the IC50 was 138 nM.
Work on COc1ccc(C[C@@H]2NC(=O)CNC(=O)[C@@H]3CSSC[C@H](NC(=O)[C@H](CC(C)C)NC(=O)[C@H](CCCCN)NC2=O)C(=O)N[C@@H](CCCNC(=N)N)C(=O)N2C[C@H](O)C[C@H]2C(=O)N[C@H](C(N)=O)CSSC[C@H](NC(=O)[C@H](CC(C)C)NC(=O)CNC(=O)[C@H](CCCNC(=N)N)NC(=O)[C@H](Cc2ccc(O)cc2)NC(C)=O)C(=O)N3)cc1 [compound 34] yielded an IC50 of 89.1 nM.
Compound CCCC[C@H](NC(=O)CNC(=O)C[C@@H](N)CCCCN)C(=O)N[C@H]1CSSC[C@@H](C(N)=O)NC(=O)[C@@H]2CCCN2C(=O)[C@H](Cc2c[nH]cn2)NC(=O)[C@@H]2CSSC[C@H](NC1=O)C(=O)NCC(=O)N[C@@H](Cc1ccc(O)cc1)C(=O)N[C@@H](CCCCN)C(=O)N[C@@H](CC(C)C)C(=O)N2 [compound 73] has an IC50 of 251 nM.
In the case of COc1ccc(C[C@@H]2NC(=O)CNC(=O)[C@@H]3CSSC[C@H](NC(=O)[C@H](CC(C)C)NC(=O)[C@H](CCCCN)NC2=O)C(=O)N[C@@H](CCCNC(=N)N)C(=O)N[C@@H](C)C(=O)N[C@H](C(N)=O)CSSC[C@H](NC(=O)[C@H](CC(C)C)NC(=O)CNC(=O)[C@H](CCCNC(=N)N)NC(=O)[C@@H](N)Cc2c[nH]c4ccccc24)C(=O)N3)cc1 [compound 37], the IC50 is reported as 100 nM.
COc1ccc(C[C@@H]2NC(=O)CNC(=O)[C@@H]3CSSC[C@H](NC(=O)[C@H](CC(C)C)NC(=O)[C@H](CCCCN)NC2=O)C(=O)N[C@@H](Cc2c[nH]cn2)C(=O)N2CCC[C@H]2C(=O)N[C@H](C(N)=O)CSSC[C@H](NC(=O)[C@@H](NC(=O)CNC(=O)C[C@@H](N)CCCCN)C(C)C)C(=O)N3)cc1 [compound 75] gave an IC50 of 251 nM.
COc1ccc(C[C@@H]2NC(=O)CNC(=O)[C@@H]3CSSC[C@H](NC(=O)[C@H](CC(C)C)NC(=O)[C@H](CCCCN)NC2=O)C(=O)N[C@@H](CCCNC(=N)N)C(=O)N2C[C@H](O)C[C@H]2C(=O)N[C@H](C(=O)N[C@@H](Cc2ccc(O)cc2)C(N)=O)CSSC[C@H](NC(=O)[C@H](CC(C)C)NC(=O)CNC(=O)[C@@H](N)Cc2c[nH]c4ccccc24)C(=O)N3)cc1 [compound 44] was tested, and the IC50 was 129 nM.
